The values that follow come from patent publication US20020127211A1, “ABSORPTION OF MINERALS BY INTESTINAL CELLS” (priority 1997, published 2002).

Data set [1] deals with Caco-2 intestinal cells. The data set can be described thus: Transport (absorption) of calcium by Caco-2 intestinal cells in the presence of bacteria. It is filed as cell-based, human. The following applies: FIGS. 2 and 3; 6.7×10^7 or 3.4×10^8 cfu/ml in the top compartment; 10 mM CaCl2 apical, 2.5 mM basolateral. The method, then:
Cell culture: the human cell line Caco-^9, isolated from a colon adenocarcinoma. is obtained from American Type Culture Collection (passage 41). The cells are placed in culture in an amount of 4×1I^4 cells/cm^2 in DMEM containing 4.5 g/l of glucose. 20% heat-inactivated foetal calf serum, 1 mg/ml of fungizone, 100 U/ml of penicillin/streptomycin. 200 µg/ml of gentamycin and 1% of nonessential amino acids. The cells are regularly tripsinized and placed in culture aaain at 1:20. The cells used in the calcium transport experiments are placed in culture at 1×10^5 cells/cm^2 in permeable inserts previously coated with a layer of collagen I at 50 pLg/ml. […]
The radioactivity contained in these samples is evaluated by liquid scintillation counting and makes it possible to extrapolate on the quantity of coicl CaCl2 absorbed. The basal transport of calcium is expressed as nmol of calcium transported to the bottom compartment of the insert. The diffusion of Lucifer yellow detected by spectrofluorometrv in the bottom compartment is expressed in % of the quantitv introduced into the top compartment. […]
Lactobacillits bulgaricits L fiS. […] The Caco-2:bacteria ratio is then about 1: 100 according to the tests (6.7×10^7 or 3.4×10^8 cfu/ml in the top compartment of the inserts. for the tests presented in FIGS. 2 and 3) The absorption of calcium is evaluated according to the protocol mentioned above.

The nature of data set [2]: pH of the experimental medium with bacteria in the absence of Caco-2 cells. The method, then:
Lactobacillits bulgaricits L fiS. YL8. Lactobacillus paracasei STI 1l Lactobacillits gasseri LGA7: Lactobacillus reuteri LR7 and Streptococczws thermophiluts Sfi20, YS4 (Nestec collection, Lausanne. Switzerland) are placed in culture under anaerobic conditions in MRS broth for Lactobacillus or M1 7 for Streptococcus for two times 24 h, washed in PBS and resuspended in carrier buffer before being introduced into the top compartment of the inserts. The Caco-2:bacteria ratio is then about 1: 100 according to the tests (6.7×10^7 or 3.4×10^8 cfu/ml in the top compartment of the inserts. for the tests presented in FIGS. 2 and 3) The absorption of calcium is evaluated according to the protocol mentioned above.
In all these experiments, the diffusion of Lucifer yellow is modulated in a similar manner but remains negligible. 30 A decrease in pH in the top compartment of the inserts is also observed when the Caco-2 cells are in the presence of lactobacilli, regardless of the strain. except with the Sfi2O strain (Table 1). There is therefore no correlation between the increase in the absorption of calcium and this decrease in pH. However certain bacterial strains capable of increasing the absorption of calcium are not 35 capable of acidifving the experimental medium in the absence of Caco-2. […]

Data set [3] relates to Caco-2 cells. The data set can be described thus: pH of the experimental medium (top compartment of inserts) with bacteria in the presence of Caco-2 cells. It is filed as cell-based, human. The method, then:
Transport of calcium: the Caco-2 cells are cultured on inserts for 3 to 5 weeks. On the day of the experiment. the cellular lawn is washed twice in PBS and then the bottom compartment of the insert incorporating the serosa (basolateral pole of the cells) receives 1.5 ml of carrier butTer (140 mM NaCl. 5.8 mM KC[. 0.34 mM NaH PO4 0.44 mM KHIPO4, 0.8 mM M2SO4. 20 mM HEPES. 4 mM glutamine, 25 mM glucose, pH 7.4) supplemented with 2.5 mM CaCI2. whereas the top compartment of the insert incorporating the intestinal lumen (apical pole of the cells) receives 1.5 ml of carrier buffer supplemented with 10 mM CaCl2 and trace amounts of 4^5CaCl2 and Lucifer yellow. The inserts are then placed at 37° C. and 50 Kil of sample in the bottom and top compartments are removed at regular intervals.
Lactobacillits bulgaricits L fiS. YL8. […] The Caco-2:bacteria ratio is then about 1: 100 according to the tests (6.7×10^7 or 3.4×10^8 cfu/ml in the top compartment of the inserts. for the tests presented in FIGS. 2 and 3) The absorption of calcium is evaluated according to the protocol mentioned above. […]

With “Lactobacillus johnsonii Lal (CNCM 1-1225) [La1]”, the “absorption of calcium by the Caco-2 cells” value in data set [1] was “increased significantly”. The “pH without Caco-2” value in data set [2] was 6.75 +/− 0.3. Also, the “pH with Caco-2” value in data set [3] is on record as 3.75 +/− 0.3.
